Our source for the Ki and EC50 values is US6812210B2, “Urocortin-III and uses thereof” (priority 2001, dated 2004).

Chains of the proteins cited; added tags and fusions are not shown. Residues count along the entry.
UniProt P35353, 24-415: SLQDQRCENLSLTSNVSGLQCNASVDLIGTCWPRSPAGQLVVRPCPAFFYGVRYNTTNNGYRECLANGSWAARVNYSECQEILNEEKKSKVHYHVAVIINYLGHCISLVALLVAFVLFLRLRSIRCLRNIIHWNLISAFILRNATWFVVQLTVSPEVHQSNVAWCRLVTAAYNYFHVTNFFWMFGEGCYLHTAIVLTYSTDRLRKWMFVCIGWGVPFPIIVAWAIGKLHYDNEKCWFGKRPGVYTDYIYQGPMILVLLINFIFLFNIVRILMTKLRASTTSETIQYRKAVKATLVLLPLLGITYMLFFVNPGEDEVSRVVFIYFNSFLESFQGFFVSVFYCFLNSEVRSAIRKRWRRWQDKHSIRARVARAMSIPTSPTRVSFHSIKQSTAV

Substitutions are numbered along the chain they refer to. Where two headings read alike, the source gives them in different places.

Assay [1] deals with T1, hCRF-R1 (Homo sapiens, UniProt P34998).
T1 construct: expressed in transfected cells
T1 sequence (P34998 24-415): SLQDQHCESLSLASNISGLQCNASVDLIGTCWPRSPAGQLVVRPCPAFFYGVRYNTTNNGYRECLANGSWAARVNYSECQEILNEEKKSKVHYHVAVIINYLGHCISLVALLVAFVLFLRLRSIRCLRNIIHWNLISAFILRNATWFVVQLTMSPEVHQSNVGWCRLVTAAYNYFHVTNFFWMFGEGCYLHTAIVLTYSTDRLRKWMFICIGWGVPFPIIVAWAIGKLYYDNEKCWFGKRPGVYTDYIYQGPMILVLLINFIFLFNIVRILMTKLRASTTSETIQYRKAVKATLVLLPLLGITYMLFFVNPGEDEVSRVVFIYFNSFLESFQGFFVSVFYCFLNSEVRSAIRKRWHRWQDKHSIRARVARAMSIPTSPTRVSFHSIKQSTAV
Kind of assay: Competitive displacement of [125I-Tyr0,Glu1,Nle17]-sauvagine from membranes of CHO cells stably expressing hCRF-R1. The following applies: read-out: Binding to Membranes from CHO cells stably expressing hCRF-R1 (Ki); three to six independent experiments; average from log10 values. A general note: In a radioligand displacement assay an active substance lowers the binding of a labelled ligand.

In assay [2] the target is T1, hCRF-R1. Put plainly: cAMP accumulation in CHO cells stably expressing hCRF-R1. The assay is classed as cell-based. To be noted: read-out: cAMP in CHO cells stably expressing hCRF-R1 (EC50), peptides for 20 min at 37° C.
The next assay has as its target T2, CRF-R1 (Rattus norvegicus, UniProt P35353).
T2 construct: cells expressing endogenous CRF-R1 (cultured primary anterior pituitary cells, (5)) or CRF-R2β (A7r5 cells, (27)); endogenous in cells; host or cells: primary rat anterior pituitary cells in culture
T2 sequence (P35353 24-415): T1 sequence (P34998 24-415) with H6R, S9N, A13T, I16V, M153V, G163A, I209V, Y229H, H356R
Put plainly: cAMP accumulation in primary rat anterior pituitary cells expressing endogenous CRF-R1. To be noted: read-out: EC50, cAMP accumulation in primary rat anterior pituitary cells; FIG. 3B; stimulated for 45 min. The assay is classed as cell-based. How it is done: The abilities of Ucn II and Ucn III to activate adenylate cyclase in cells expressing endogenous CRF-R1 (cultured primary anterior pituitary cells, (5)) or CRF-R2β (A7r5 cells, (27)). Rat aortic smooth muscle cells, A7r5, were plated into 48-well culture dishes and allowed to recover for 48 h. Cells were starved in DMEM/0.2% FBS overnight before the experiment. The cells were preincubated with 0.1 mM 3-isobutyl-1-methylxanthine for 30 min and then exposed to peptides for 20 min at 37° C. Rat anterior pituitary cells were established in culture (28) and treated with test peptides for 45 min at 37° C. Intracellular cAMP was extracted from all cells and measured from triplicate wells using a radioimmunoassay kit (Biomedical Technologies). Potencies were determined using the PRISM […].
For orientation: Cyclic AMP is a second messenger, typically raised through Gs and lowered through Gi signalling.

Turning to “urocortin [Urocortin (rat), reference compound]”, on hCRF-R1 [1], the Ki was determined as 0.32 nM. Besides, the EC50 on hCRF-R1 [2] is 0.15 nM; at hCRF-R1 [2] (listed as Ucn), around 0.15 nM; on CRF-R1 it was 2.3 nM.

By Ki is commonly meant a measure of affinity in units of concentration, obtained from inhibition or displacement. As usually defined, the EC50 is the midpoint of the concentration-response curve.
